# Results as given in patent US12031977B2, “Ex vivo system for determining multiple drug-drug transporter interactions and methods of use thereof” (Massachusetts Institute of Technology, priority 2019, dated 2024).
# Experiments:
# P-gp, BCRP, and MRP2 = assay: mock screening of model drugs: ex vivo perfusion through porcine small intestine tissue after siRNA knockdown; conditions: transporter(s) found by siRNA knockdown perfusion screen
# Pgp, BCRP, MRP2 = conditions: transporter(s) reported in previous literature for the drug; cited from earlier work
smiles,measurement,setting,value
CC(C)Cc1ccc(C(C)C(=O)O)cc1 (stereo not shown) [Ibuprofen],Platform Target,"P-gp, BCRP, and MRP2",Pgp
same,Literature Target,"Pgp, BCRP, MRP2",Pgp
C=C[C@H]1C[N@@]2CC[C@H]1C[C@H]2[C@H](O)c1ccnc2ccc(OC)cc12 [Quinine],Platform Target,"P-gp, BCRP, and MRP2",Pgp & BCRP
same,Literature Target,"Pgp, BCRP, MRP2",Pgp & BCRP
